# From patent US20260124311A1, “POLYMER-DRUG CONJUGATES FOR STING PATHWAY ACTIVATION” (Vanderbilt University, priority 2022, published 2026)
# Sequences of proteins named here, by UniProt entry; tags and fusion partners are left off.
# UniProt Q86WV6, whole entry H232R: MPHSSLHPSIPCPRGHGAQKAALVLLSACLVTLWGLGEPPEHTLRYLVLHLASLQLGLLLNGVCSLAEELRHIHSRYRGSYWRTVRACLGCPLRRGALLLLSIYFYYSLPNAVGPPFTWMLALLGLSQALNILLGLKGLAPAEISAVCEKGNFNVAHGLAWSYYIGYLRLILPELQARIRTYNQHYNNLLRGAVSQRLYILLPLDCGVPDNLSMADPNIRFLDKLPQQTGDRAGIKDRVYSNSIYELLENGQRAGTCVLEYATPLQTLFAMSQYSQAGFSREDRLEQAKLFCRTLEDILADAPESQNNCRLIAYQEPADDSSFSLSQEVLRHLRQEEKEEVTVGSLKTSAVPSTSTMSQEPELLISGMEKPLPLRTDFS
# UniProt Q86WV6, whole entry R71H/G230A/H232R/R293Q: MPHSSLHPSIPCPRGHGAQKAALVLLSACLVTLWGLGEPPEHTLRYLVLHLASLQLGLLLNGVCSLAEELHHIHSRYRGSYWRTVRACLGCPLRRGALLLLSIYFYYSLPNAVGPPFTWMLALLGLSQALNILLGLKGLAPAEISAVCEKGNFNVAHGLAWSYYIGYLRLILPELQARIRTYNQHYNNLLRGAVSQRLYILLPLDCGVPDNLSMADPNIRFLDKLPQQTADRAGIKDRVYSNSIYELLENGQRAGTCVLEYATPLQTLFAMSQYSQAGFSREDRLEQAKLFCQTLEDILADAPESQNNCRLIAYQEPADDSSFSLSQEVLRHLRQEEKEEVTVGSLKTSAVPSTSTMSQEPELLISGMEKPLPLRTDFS
# Legend:
# [1] = target: T1, recombinant human STING (hSTING; STING isoform 1) (Homo sapiens, UniProt Q86WV6); assay: Isothermal calorimetry (ITC) binding to recombinant human STING; conditions: PEGylated conjugates, unit inferred, read-out: binding affinities to STING (KD)
# T1 construct: made in house; host or cells: Escherichia coli (New England Biolabs, T7 Shuffle Express line)
# [2] = target: T2, STING (Homo sapiens, UniProt Q86WV6, G230A/H232R/R293Q/R71H); assay: THP1-Dual reporter assay (IRF-luciferase, Quanti-Luc) for activation of STING; type: cell-based; conditions: Table 2, FIG. 18A; IRF signaling in THP-1 Dual reporter cells
# T2 construct: host or cells: THP1-Dual cells
# [3] = healthy mice, intravenous, approximately 0.012 μmol diABZI/mouse, 24 hours sampling
# [4] = FIG. 13
substance,measurement,setting,value
diABZI-20k PEG [diABZI-20k PEG (18)],Kd,[1],767 ± 335 nM
diABZI(CTA)-DMA-50k [50 kDa diABZI-DMA (33)],EC50,[2],67.3 nM
diABZI-V/C-20k PEG [diABZI-V/C-20k PEG (21)],Kd,[1],298 ± 290 nM
25 kDa-poly(dimethylacrylamide-co-azidethylmethacrylate)-graft-diamidobenzimidazole) [25 kDa DMA-g-V/C-diABZI (28)],serum half-life,[3],1.1 h
same,serum half-life,[3]; listed as 28,approximately 1.07 hours
same,particle formation by DLS,[4],no uniform particle formation
diABZI(CTA)-DMA-25k [25 kDa diABZI-DMA (32)],EC50,[2],123 nM
diABZI(CTA)-DMA-175k [175 kDa diABZI-DMA (34)],EC50,[2],163 nM
100 kDa-poly(dimethylacrylamide-co-azidethylmethacrylate)-graft-diamidobenzimidazole) [100 kDa DMA-g-V/C-diABZI (29)],serum half-life,[3],~4.4 h
same,particle formation by DLS,[4],no uniform particle formation

# Read-outs that look alike come from different tables or passages of the source.
